In experiment [1] the target is rat α1A/D-receptor subtype (Rattus norvegicus, UniProt P23944). Conditions: COS-7 membranes, 25°C, 45 minutes, average ± SEM, n=8. As for the experimental part: (§1) After 4 days of the transfection, these cells were again suspended in an ice-cold buffer for binding experiment (50 mmol/l Tris, 0.5 mmol/l EDTA, pH 7.5) and homogenized using Tissumeizer for 10 seconds at a maximum speed and then twice for 20 seconds at 2/3 speed. The thus obtained homogenate was centrifuged at 50,000 g for 20 minutes, and the resulting pellet was again suspended in the buffer for binding experiment to a concentration of 0.5 to 2 mg/ml.
(§2) This incubation was terminated by quick filtration under a reduced pressure using Whatman GF/C filter paper. Non-specific binding was defined as binding in the presence of 10 µmol/l of phentolamine. […] The protein content was determined in accordance with the Bradford method using bovine IgG as an standard. In the competitive binding experiment, each compound was evaluated by 3 to 4 tests using at least two separate batches of transfected cells.
(§3) The result was shown as the average value ± SEM of n times of tests.

The chains behind the UniProt entries cited, without tags or fusion partners.
UniProt P23944, whole entry: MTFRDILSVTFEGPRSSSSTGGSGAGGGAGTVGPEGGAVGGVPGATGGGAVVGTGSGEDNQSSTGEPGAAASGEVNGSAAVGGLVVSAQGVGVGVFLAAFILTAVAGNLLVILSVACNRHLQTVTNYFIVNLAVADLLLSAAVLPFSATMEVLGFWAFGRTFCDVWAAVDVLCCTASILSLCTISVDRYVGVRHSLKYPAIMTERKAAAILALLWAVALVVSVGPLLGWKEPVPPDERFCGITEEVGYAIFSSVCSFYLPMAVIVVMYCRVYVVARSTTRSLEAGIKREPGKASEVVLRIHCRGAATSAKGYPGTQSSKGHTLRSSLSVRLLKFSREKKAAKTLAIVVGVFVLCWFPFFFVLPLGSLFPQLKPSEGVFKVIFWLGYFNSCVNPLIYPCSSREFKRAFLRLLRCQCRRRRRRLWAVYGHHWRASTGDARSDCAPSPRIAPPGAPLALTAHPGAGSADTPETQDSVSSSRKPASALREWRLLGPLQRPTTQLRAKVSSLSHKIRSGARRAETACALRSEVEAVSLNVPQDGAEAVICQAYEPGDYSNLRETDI
UniProt P15823, whole entry: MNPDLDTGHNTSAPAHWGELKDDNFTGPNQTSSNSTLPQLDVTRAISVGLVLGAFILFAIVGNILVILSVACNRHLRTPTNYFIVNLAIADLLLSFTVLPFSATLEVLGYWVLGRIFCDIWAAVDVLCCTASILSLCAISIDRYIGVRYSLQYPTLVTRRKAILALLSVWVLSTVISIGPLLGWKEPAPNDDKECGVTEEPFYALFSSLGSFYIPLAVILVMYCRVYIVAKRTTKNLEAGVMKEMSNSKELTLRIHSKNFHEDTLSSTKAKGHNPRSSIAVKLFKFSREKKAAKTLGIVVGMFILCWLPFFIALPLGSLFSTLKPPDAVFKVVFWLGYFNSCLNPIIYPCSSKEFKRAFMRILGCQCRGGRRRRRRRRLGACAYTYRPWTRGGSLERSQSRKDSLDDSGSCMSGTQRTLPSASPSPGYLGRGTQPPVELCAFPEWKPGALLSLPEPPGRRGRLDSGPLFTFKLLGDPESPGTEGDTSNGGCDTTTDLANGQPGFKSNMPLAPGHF

A further experiment has as its target rat α1B-receptor subtype (Rattus norvegicus, UniProt P15823). Conditions: COS-7 membranes, 25°C, 45 minutes, average ± SEM, n=5. As to the method:
as §1, §2, §3

In experiment [2] the target is T1, bovine α1C-receptor subtype (Bos taurus, UniProt P18130).
T1 construct: pBCα1c which contains the entire coding region of bovine α1C receptor subtype; expressed in transfected cells; host or cells: COS-7 cells, transient expression, membrane preparation
T1 sequence (P18130 1-466): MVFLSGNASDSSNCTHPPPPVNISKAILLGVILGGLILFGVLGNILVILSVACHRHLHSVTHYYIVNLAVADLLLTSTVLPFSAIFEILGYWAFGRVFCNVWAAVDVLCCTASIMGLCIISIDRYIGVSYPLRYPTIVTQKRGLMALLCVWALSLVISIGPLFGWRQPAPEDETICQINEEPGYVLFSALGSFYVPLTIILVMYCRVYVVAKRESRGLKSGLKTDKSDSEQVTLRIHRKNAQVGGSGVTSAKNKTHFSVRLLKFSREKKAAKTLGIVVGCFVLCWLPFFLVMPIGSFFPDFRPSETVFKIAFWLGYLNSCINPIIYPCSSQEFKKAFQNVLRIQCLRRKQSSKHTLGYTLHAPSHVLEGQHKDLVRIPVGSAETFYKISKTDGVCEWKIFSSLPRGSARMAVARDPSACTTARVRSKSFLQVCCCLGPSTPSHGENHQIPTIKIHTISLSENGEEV
As to the kind of experiment: Saturation binding of [³H] prazosin to membranes of transfected COS-7 cells. To be noted: average ± SEM, n=6.

By Kd is commonly meant the concentration at which binding is half-saturated. Low values mean higher affinity, high ones lower affinity.

Turning to [³H] prazosin, the Kd in experiment [1] is 0.148 ± 0.015 nM; at rat α1B-receptor subtype it was 0.178 ± 0.087 nM; in experiment [2] (COS-7 membranes, 25°C, 45 minutes), 0.252 ± 0.051 nM. The substance also came in with a BMAX in experiment [2] of 492 ± 177 fmol/mg protein.
